One compound from ChEMBL document CHEMBL5136978, “Research progress in pharmacological activities and structure-activity relationships of tetralone scaffolds as pharmacophore and fluorescent skeleton” (Eur J Med Chem, 2022) can be followed below.

Sequences of proteins named here, by UniProt entry; tags and fusion partners are left off.
UniProt P27338, whole entry: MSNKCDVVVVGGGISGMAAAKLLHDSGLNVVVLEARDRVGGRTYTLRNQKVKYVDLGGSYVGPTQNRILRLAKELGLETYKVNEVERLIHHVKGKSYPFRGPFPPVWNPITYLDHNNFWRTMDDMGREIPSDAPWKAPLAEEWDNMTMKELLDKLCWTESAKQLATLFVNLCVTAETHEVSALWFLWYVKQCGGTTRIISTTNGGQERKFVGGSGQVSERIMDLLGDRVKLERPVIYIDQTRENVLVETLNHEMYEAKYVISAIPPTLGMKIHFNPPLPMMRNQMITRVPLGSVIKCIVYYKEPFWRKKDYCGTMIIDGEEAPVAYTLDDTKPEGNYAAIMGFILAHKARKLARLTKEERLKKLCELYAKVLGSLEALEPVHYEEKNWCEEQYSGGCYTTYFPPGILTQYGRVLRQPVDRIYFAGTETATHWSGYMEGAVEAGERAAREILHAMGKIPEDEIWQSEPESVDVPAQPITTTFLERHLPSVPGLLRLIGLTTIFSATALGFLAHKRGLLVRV

The assay addresses Amine oxidase [flavin-containing] B (Homo sapiens, UniProt P27338). The assay can be described thus: Inhibition of recombinant human MAO-B assessed as measuring amount of 4-hydroxyquinoline using kynuramine as substrate incubated for 20 mins by fluorescence spectrophotometry.

`O=C1CCCc2ccc(OCc3ccc(Cl)cc3)cc21`: the IC50 was 1.1 nM.

Usually IC50 stands for the concentration at which inhibition is half-maximal.
